In PubChem BioAssay AID624296 (National Center for Advancing Translational Sciences (NCATS), 2012):
The list shows a part of the results, in another mix than the full data. Some tests of the compounds listed are not included; inactive here does not mean inactive elsewhere. Records with an inconclusive call do not appear. Calls of active or inactive are those of the source. Calls follow the shape of the dose curve; as a rule, active = well fitted activation curve with a large enough effect; inconclusive = small, poorly fitted or top-dose-only effect; inactive = no such curve, though single readings can be large or run the other way.

Experiment: A quantitative high throughput screen for small molecules that induce DNA re-replication in MCF 10a normal breast cells. Also: % of control where 0% means no effect; nearly all actives have a fitted effect of over 50% in size.
Details: MCF 10A DNA re-replication, Hoechst nuclear intensity, 48 h; at 46.1 µM (top of the series)

Structure (SMILES)	activity, positive = re-replication
O=C(OCCN1CCCC1)C(O)(c1ccccc1)c1ccccc1	inactive: 0.553%
CC(C)Oc1ccc(C(=O)NCC2(N(C)C)CCCCC2)cc1	inactive: -16.7%
CN(C)c1cccc(C(=O)NCC2(N(C)C)CCCCC2)c1	inactive: 0.734%
COc1ccc(Br)c(C(=O)NCC2(N3CCCCC3)CCCCC2)c1	inactive: -2.75%
O=C(OC1CN2CCC1CC2)C(CO)(c1ccccc1)c1ccccc1 (stereo not given)	inactive: 2.37%
COc1ccc(Cl)cc1C(=O)NCC1(N(C)C)CCCCC1	inactive: -14.1%
COc1cccc(C(=O)NCC2(N3CCCCC3)CCCCC2)c1	inactive: 0.47%
COc1cc(C(=O)NCC2(N(C)C)CCCCC2)c([N+](=O)[O-])cc1OC	inactive: -3.58%
CN(C)C1(CNC(=O)c2ccc(Br)cc2)CCCCC1	inactive: 1.51%
COc1ccc(C(=O)NCC2(N(C)C)CCCCC2)cc1	inactive: -3.96%
O=C(NCC1(N2CCCCC2)CCCCC1)c1cccc(Br)c1	inactive: 2.37%
Cc1cc(C(=O)NCC2(N3CCCCC3)CCCCC2)ccc1[N+](=O)[O-]	inactive: -3.81%
CCN1CCCC(OC(=O)C2(O)c3ccccc3C=Cc3ccccc32)C1 (stereo not given)	inactive: -2.61%
O=C(NCC1(N2CCCCC2)CCCCC1)c1cc(F)c(F)cc1Cl	inactive: -1.59%
C=CCN1CCN(CCOC(=O)C(O)(c2ccccc2)c2ccccc2)CC1	inactive: 16.9%
CN1CCCC(OC(=O)C(O)(c2ccccc2)c2ccccc2)C1 (stereo not given)	inactive: 7.44%
CN(C)C1CCCC1OC(=O)C(O)(c1ccccc1)c1ccccc1 (stereo not given)	inactive: 0.482%
CN(C)c1ccc(C(=O)NCC2(N(C)C)CCCCC2)cc1	inactive: -19.3%
Cc1ccccc1C(=O)NCC1(N2CCCCC2)CCCCC1	inactive: -0.214%
Cc1ccc(C(=O)NCC2(N3CCCCC3)CCCCC2)cc1	inactive: 4.66%
COc1cc(SC)ccc1C(=O)NCC1(N(C)C)CCCCC1	inactive: -7.94%
CCN(CC)CC(C)C(C)OC(=O)C(O)(c1ccccc1)c1ccccc1 (stereo not given)	inactive: 13.1%
CC(C)N1C(=O)CC2(CCN(CCOC(=O)C(O)(c3ccccc3)c3ccccc3)CC2)C1=O	inactive: 10.2%
CN1[C@@H]2CC[C@H]1CC(OC(=O)C(O)(c1ccccc1)c1ccccc1)C2 (stereo not given in full)	inactive: -11.3%
O=C(NCC1(N2CCCCC2)CCCCC1)c1cc([N+](=O)[O-])ccc1Cl	inactive: 0.758%
